# Screens as filed in PubChem BioAssay.
# In the library only some 0.92% were active in any assay of this set; here they are far more common.
# miR-21 FLuc = miR-21 reporter, rising signal | HeLa miR-21 FLuc reporter, luciferase, 48 h | Potency, µM (top dose mostly 38.3 µM), inactives show at the top dose reporter change, positive = more light | 340,000 tested, under 10 active | AID 2288; active = well fitted rising curve with a large enough effect; inconclusive = small, poorly fitted or top-dose-only effect; inactive = no such curve, though single readings can be large or run the other way;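 further: % of control where 0% means no effect; miR-21 action dims this reporter so a rising signal means less miR-21 action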
#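 Compounds were titrated across several concentrations (up to approximately 40 uM) and incubated 48 hours with HeLa miR-21-FLuc reporter cells (miR-21 target sequence downstream of FLuc, endogenous miR-21). Readout was firefly luciferase luminescence after lytic detection reagent.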
# Giardia kill = kills Giardia lamblia; Giardia lamblia trophozoite viability; activity change, % at 7.66 µM, hits read low; 340,000 compounds, 0.15% hits; in the data active = activity change below about -80%; inconclusive = between about -30% and that limit;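 also: parasites exposed to compound for two days anaerobically before the ATP read; % is scaled to controls: 0 for no effect and ±100 for the full control effect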
#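 Compounds were tested on trophozoites seeded at 100 cells/well and held 48 hrs at 37 deg C anaerobically. An ATP-based luminescent kit measured the remaining live cells.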
# Coupling enz = inhibits coupling enzyme system, counter-screen for aldolase hits; AID 2472; coupling enzyme system counterscreen, AmpLite Red fluorescence; activity change, negative = inhibition, % at 58.2 µM, hits read low; 290,000 compounds, 0.67% hits; in the data active = activity change below about -30%; also: % is scaled to controls: 0 for no effect and ±100 for the full control effect
#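 Coupling enzymes only (glyceraldehyde-3-phosphate) + compound, at 57.5 uM final, 10 min RT; add substrate/coupling/AmpLite Red mix, 20 min RT; fluorescence ex 525/em 598 nm. Actives flag coupling-system interference.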
# uPA generation = cell surface uPA generation inhibition | AID 540303 | 330,000 compounds, 0.31% hits | Potency, µM (series often up to 38.3 µM), for the others: at the highest dose activity change, negative = inhibition, most hits filed as inhibitors | cell surface uPA generation assay, qHTS; active = well fitted inhibition curve with a large enough effect; inconclusive = small, poorly fitted or top-dose-only effect; inactive = no such curve, though single readings can be large or run the other way; tested in mouse RAW 264.7 cells; also: potency is read from the fitted curve at half-maximal effect; % is scaled to controls: 0 for no effect and ±100 for the full control effect; nearly all actives have a fitted effect of over 55% in size
# B2AR arrestin = recruits beta-arrestin to the human beta2-adrenergic receptor; AID 492947; beta-arrestin recruitment to beta2AR, cell-based reporter; Potency, µM (series often up to 46.1 µM), for the others: top-dose activation, actives largely listed as activators; P07550; 330,000 compounds, 0.02% hits; active = well fitted curve in the direction sought with a large enough effect; inconclusive = small, poorly fitted or top-dose-only effect, or another doubt; inactive = no such curve, though single readings can be large; an effect the other way counts as inactive or inconclusive;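 also: potency is read from the fitted curve at half-maximal effect; 0% = DMSO controls and full agonism = EC100 isoproterenol or metaproterenol; nearly all actives have a fitted effect of over 65% in size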
# GALK inh = galactokinase (human) inhibition; P51570; Purified GALK, Kinase-Glo residual ATP luminescence; Potency, µM (doses to about 57.5 µM), inactives show at the top dose activity change, negative = inhibition, hits mostly inhibitors; 270,000 compounds, 0.007% hits; AID 1868; active = well fitted curve in the direction sought with a large enough effect; inconclusive = small, poorly fitted or top-dose-only effect, or another doubt; inactive = no such curve, though single readings can be large; an effect the other way counts as inactive or inconclusive; also: potency is read from the fitted curve at half-maximal effect; % is scaled to controls: 0 for no effect and ±100 for the full control effect
#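 Luminescence from leftover ATP (Ultra-Glo luciferase/luciferin) served as read-out after a 1 h room-temperature reaction of 5 nM GALK with 35 uM ATP and 100 uM galactose.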
# CASP1 inh CRC = blocks human caspase-1 activity in concentration-response; 60 compounds, 20% hits; shares compounds with Coupling enz; Potency, µM (highest dose often 57.5 µM), for the others: at the top dose activity change, negative = inhibition, most hits filed as inhibitors; purified caspase-1, fluorogenic substrate cleavage
# CASP7 inh CRC = blocks human caspase-7 activity in concentration-response. shares compounds with Coupling enz. recombinant caspase-7, fluorogenic substrate cleavage. Potency, µM (highest dose often 57.5 µM), without a hit: at the highest dose activity change, negative = inhibition, usual class: inhibitors. 60 tested, under 10 active. AID 897; active = well fitted inhibition curve with a large enough effect in the main read-out, with a control signal flat, not every such curve was filed as active; inconclusive = small, poorly fitted or top-dose-only effect, or a change in a side signal; inactive = no such curve, though single readings can be large or run the other way
# CASP7 redox cys = caspase-7 inhibition with cysteine present; shares compounds with Coupling enz; caspase-7 enzyme with cysteine, fluorogenic substrate, redox counterscreen; Potency, µM (titrated, usually from 57.5 µM), for inactives: top-dose activity change, negative = inhibition, actives largely listed as inhibitors; 60 tested, under 10 active; AID 908
# Casp1 cysteine = caspase-1 inhibition with cysteine present; shares compounds with Coupling enz; recombinant caspase-1, fluorogenic substrate, cysteine buffer; Potency, µM (titrated, usually from 57.5 µM), for the others: top-dose activity change, negative = inhibition, actives largely listed as inhibitors; 60 tested, under 10 active; AID 929
# Active calls of the source: *; ? = inconclusive; · = not tested or not shown; ! = repeats disagree. Unless noted, calls follow the shape of the dose curve; as a rule, active = well fitted inhibition curve with a large enough effect in the main read-out, with a control signal flat; inconclusive = small, poorly fitted or top-dose-only effect, or a change in a side signal; inactive = no such curve, though single readings can be large or run the other way.
SMILES,miR-21 FLuc,Giardia kill,Coupling enz,uPA generation,B2AR arrestin,GALK inh,others
COC(=O)C1C(O)C(C)C(O)C(C)/C=C\C=C(/C)C(=O)Nc2c(C)c(OC(C)=O)c3c(c2O)C(=O)C(C)=C2OCOC(=C23)/C(C)=C/C(C)(O)C(O)C(C)C1O (stereo not given),6%,-2,-30*,3%,5%,3%,
COc1cc2c(cc1OC)-c1c(OC)c(OC)cc3ccnc(c13)C2=O,-32%,-84*,-34*!,?,-2%,·,
Cc1cccc(-n2ncc3c(NCc4cccnc4)ncnc32)c1,-25%,-30,-1,?,0%,2%,
Cc1cccc(-n2ncc3c(NCCCO)ncnc32)c1,-37%,3,-1,1.8µM*,0%,2%,
CC1(NC(=O)CC(c2ccccc2)(c2ccccc2)c2ccccc2)CCN(CCCc2ccccc2)C1=O (stereo not given),·,7,·,?,-1%,·,
COC(=O)C1=C(c2ccc3ccccc3c2)C[C@@H]2CC[C@H]1N2C(=O)NCc1ccc(C(F)(F)F)cc1,·,-17,·,11µM*,-1%,·,
Oc1cc2c(cc1O)[C@H]1c3ccccc3CN[C@H]1CC2,·,·,-7,·,·,·,
COc1ccc(OCC(=O)N2CCN(C(C)C)CC2)cc1,-6%,26,0,-3%,0%,-2%,
CC(C)N1CCN(c2ccc(O)cc2)CC1,-12%,4,-51*,-5%,0%,3%,
COC(=O)c1cc(=O)n(Cc2ccco2)c(=Nc2ccc(F)c(Cl)c2)s1,?,-22,-3,10µM*,0%,0%,
CC(C)n1c(=O)c(C=Nc2ccc(Cl)cc2)c(O)n(Cc2ccco2)c1=O,-10%,·,1,·,0%,1%,
CCOP(=S)(OCC)OCCSCC,·,·,3,·,·,·,
CCOC(=O)Cn1cc([N+](=O)[O-])nc1[N+](=O)[O-],3%,-21,-39*,-8%,0%,-2%,
CC(C)[C@H]1C(=O)N2CCC[C@H]2[C@]2(O)O[C@](NC(=O)[C@@H]3C=C4c5cccc6[nH]cc(c56)C[C@H]4N(C)C3)(C(C)C)C(=O)N12,-15%,0,-46*,?,-2%,3%,
CC(C)C[C@H]1C(=O)N2CCC[C@H]2[C@]2(O)O[C@](NC(=O)[C@@H]3C=C4c5cccc6[nH]c(Br)c(c56)CC4N(C)C3)(C(C)C)C(=O)N12 (stereo not given in full),?,-10,-21,16%,0%,4%,
CC(C)C1C(=O)N2CCCC2[C@]2(O)O[C@@](NC(=O)[C@@H]3C=C4c5cccc6[nH]cc(c56)C[C@H]4N(C)C3)(C(C)C)C(=O)N12 (stereo not given in full),·,·,-34*,·,·,·,
OCC(Br)(Br)Br,·,·,3,·,·,·,
Oc1ccccc1/C=N/NP(=S)(c1ccccc1)c1ccccc1,15%,-11,-2,5%,0%,7%,
Cc1ccc2[nH]c(C(=O)N/N=C/c3ccccc3O)c(C)c2c1,-1%,20,1,3.5µM*,0%,4%,
Oc1ccc(CCNc2ncnc3ccc(Cl)cc23)cc1,?,7,-1,?,0%,·,

# Continued, starting with the last 4 of the part before.
SMILES,miR-21 FLuc,Giardia kill,Coupling enz,uPA generation,B2AR arrestin,GALK inh,others
OCC(Br)(Br)Br,·,·,3,·,·,·,
Oc1ccccc1/C=N/NP(=S)(c1ccccc1)c1ccccc1,15%,-11,-2,5%,0%,7%,
Cc1ccc2[nH]c(C(=O)N/N=C/c3ccccc3O)c(C)c2c1,-1%,20,1,3.5µM*,0%,4%,
Oc1ccc(CCNc2ncnc3ccc(Cl)cc23)cc1,?,7,-1,?,0%,·,
Nc1cc2nc3ccccc3nc2cc1N,-8%,-4,-34*,3%,-1%,9%,
O=C(O)c1cc[c]([Hg][Cl])cc1,·,-4,·,?,0%,·,CASP1 inh CRC=10µM*;CASP7 inh CRC=-14%;CASP7 redox cys=-25%;Casp1 cysteine=2.5µM*
COc1ccc(C(=O)O)cc1OC,·,13,0,1%,·,·,
CCn1nc(-c2cccs2)nc2c(=O)n(C)c(=O)nc1-2,0%,4,-69*,-19%,0%,1.3µM*,CASP1 inh CRC=0.32µM*;CASP7 inh CRC=0.63µM*;CASP7 redox cys=-11%;Casp1 cysteine=-4%
Cc1cnc(C(=O)Nc2ccc(OC(F)(F)F)cc2)cn1,-18%,-3,1,?,0%,-7%,
